From PMC7722097 (ChemMedChem, 2020)

The chains behind the UniProt entries cited, without tags or fusion partners. Residues count along the entry.
UniProt P98170, 253-347 limits assumed: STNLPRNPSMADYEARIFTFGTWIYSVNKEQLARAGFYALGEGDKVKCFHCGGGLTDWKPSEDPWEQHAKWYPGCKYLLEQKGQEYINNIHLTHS

Experiments:
[1] = target: HA-BIR3 of XIAP-expressing HEK293T cells (Homo sapiens, UniProt P98170); test: Immunoblot of HA-BIR3 XIAP-expressing HEK293T cells; type: cell-based; conditions: 10 μM compound, 6 h, anti-HA antibody
[2] = target: wt-BIR3 (Lys311) domain of XIAP (Homo sapiens, UniProt P98170); test: Denaturation thermal shift, wt BIR3 of XIAP; conditions: approximate values or bounds in running text; incubation 30 min or 2 h

Stabilization of HA-BIR3 in cell (western blot band intensity) [1]: stabilized the BIR3 domain in cell
ΔTm, BIR3 domain of XIAP, as stated in text or legend [2]: ~ 10 °C
Compound: CN[C@@H](C)C(=O)N[C@H](C(=O)N1CCC[C@H]1c1nc(C(=O)c2ccc(F)cc2)cs1)C1CCCCC1 [LCL161, reference compound]
